## Membrane permeability of cyclic peptides

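The data file gives no further conditions (lipid, pH, time, direction or concentration), and values from different papers need not be comparable. The list need not hold all peptides of the study. Peptides that the database sets to -10, its floor, are left out.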

PAMPA is the parallel artificial membrane permeability assay, which has no cells and reads passive diffusion.
Values are log10 P with P in cm/s, so -5 is more permeable than -7.

| structure (SMILES) | PAMPA (log10 cm/s) |
|---|---|
| CCCN1CC(=O)N(C)[C@@H](CC(C)C)C(=O)N(C)[C@H](CC(C)C)C(=O)N2CCC[C@H]2C(=O)N(Cc2ccccc2)CC(=O)N[C@@H](Cc2ccccc2)C1=O | -5.09 |
| CCCN1CC(=O)N[C@@H](CC(C)C)C(=O)N[C@@H](CC(C)C)C(=O)N2CCC[C@@H]2C(=O)N[C@@H](CC(C)C)C(=O)N[C@@H](Cc2ccccc2)C1=O | -6.62 |
| CC(C)C[C@H]1NC(=O)[C@H]2CCCN2C(=O)[C@H](CC(C)C)N(C)C(=O)[C@@H](CC(C)C)NC(=O)[C@@H](C)N(C)C(=O)[C@@H]2CCCN2C(=O)[C@H](Cc2ccccc2)NC1=O | -5.68 |
| CC(C)C[C@@H]1C(=O)N[C@@H](Cc2ccccc2)CC(=O)N2CCC[C@H]2C(=O)N(Cc2ccccc2)CC(=O)N[C@@H](Cc2ccccc2)C(=O)N2CCC[C@@H]2C(=O)N(C)[C@H](C)C(=O)N1C | -5.80 |
| CC(C)C[C@@H]1NC(=O)[C@@H](C)N(C)C(=O)[C@H]2CCCN2C(=O)[C@H](Cc2ccccc2)NC(=O)[C@H](CC(C)C)N(C)C(=O)[C@H]2CCCN2C(=O)[C@H](CC(C)C)NC1=O | -5.96 |
| CC(C)C[C@@H]1NC(=O)[C@@H]2CCCN2C(=O)C[C@H](Cc2ccccc2)NC(=O)[C@H](CC(C)C)N(C)C(=O)[C@H](C)NC(=O)[C@H]2CCCN2C(=O)[C@H](Cc2ccccc2)NC1=O | -5.65 |
| CCCN1CC(=O)N[C@@H](CC(C)C)C(=O)N[C@@H](Cc2ccccc2)CC(=O)N2CCC[C@@H]2C(=O)N[C@H](CC(C)C)C(=O)N[C@@H](Cc2ccccc2)C(=O)N2CCC[C@H]2C1=O | -6.50 |
| CCCN1CC(=O)N[C@H](CC(C)C)C(=O)N(C)[C@@H](CC(C)C)C(=O)N2CCC[C@@H]2C(=O)N[C@@H](CC(C)C)C(=O)N[C@@H](Cc2ccccc2)C(=O)N2CCC[C@H]2C1=O | -5.99 |
| CC(C)C[C@@H]1NC(=O)[C@@H](C)N(C)C(=O)[C@H](Cc2ccccc2)NC(=O)CN(Cc2ccccc2)C(=O)[C@@H]2CCCN2C(=O)C[C@H](Cc2ccccc2)NC1=O | -6.01 |
| CC(C)C[C@@H]1NC(=O)C[C@H](Cc2ccccc2)NC(=O)[C@@H]2CCCN2C(=O)[C@H](Cc2ccccc2)NC(=O)[C@H](CC(C)C)N(C)C(=O)[C@H]2CCCN2C(=O)[C@@H](CC(C)C)N(C)C1=O | -5.20 |
| CC(C)C[C@@H]1C(=O)N(Cc2ccccc2)CC(=O)N2CCC[C@@H]2C(=O)N(C)[C@@H](CC(C)C)C(=O)N[C@@H](Cc2ccccc2)C(=O)N2CCC[C@@H]2C(=O)N[C@@H](Cc2ccccc2)CC(=O)N1C | -5.44 |
| CC(C)C[C@@H]1NC(=O)[C@H]2CCCN2C(=O)[C@H](CC(C)C)NC(=O)[C@@H](CC(C)C)N(C)C(=O)[C@H](C)N(C)C(=O)[C@H]2CCCN2C(=O)[C@H](Cc2ccccc2)NC1=O | -6.09 |
| CC(C)C[C@@H]1NC(=O)[C@@H](C)NC(=O)[C@H](Cc2ccccc2)NC(=O)CN(Cc2ccccc2)C(=O)[C@H]2CCCN2C(=O)[C@H](CC(C)C)NC1=O | -5.68 |
| CC(C)C[C@@H]1C(=O)N[C@@H](Cc2ccccc2)C(=O)N2CCC[C@H]2C(=O)N(C)[C@H](C)C(=O)N(C)[C@@H](CC(C)C)C(=O)N(C)[C@@H](CC(C)C)C(=O)N2CCC[C@@H]2C(=O)N1C | -5.63 |
| CC(C)C[C@@H]1NC(=O)[C@@H](C)N(C)C(=O)[C@H](Cc2ccccc2)NC(=O)[C@@H](CC(C)C)NC(=O)[C@@H]2CCCN2C(=O)[C@H](CC(C)C)N(C)C1=O | -5.38 |

A selection of 2 entries from above:

| structure (SMILES) | PAMPA (log10 cm/s) |
|---|---|
| CC(C)C[C@@H]1NC(=O)[C@@H](C)N(C)C(=O)[C@H]2CCCN2C(=O)[C@H](Cc2ccccc2)NC(=O)[C@H](CC(C)C)N(C)C(=O)[C@H]2CCCN2C(=O)[C@H](CC(C)C)NC1=O | -5.96 |
| CC(C)C[C@@H]1C(=O)N[C@@H](Cc2ccccc2)CC(=O)N2CCC[C@H]2C(=O)N(Cc2ccccc2)CC(=O)N[C@@H](Cc2ccccc2)C(=O)N2CCC[C@@H]2C(=O)N(C)[C@H](C)C(=O)N1C | -5.80 |

Values of Townsend et al. 2020, doi:10.26434/chemrxiv.13335941.v1, as listed in CycPeptMPDB.